# Target: PPARγ (Homo sapiens (Human), UniProt P37231)
# By UniProt entry, the sequences of proteins in these tests, tags left out.
# UniProt P37231, whole entry, species assumed: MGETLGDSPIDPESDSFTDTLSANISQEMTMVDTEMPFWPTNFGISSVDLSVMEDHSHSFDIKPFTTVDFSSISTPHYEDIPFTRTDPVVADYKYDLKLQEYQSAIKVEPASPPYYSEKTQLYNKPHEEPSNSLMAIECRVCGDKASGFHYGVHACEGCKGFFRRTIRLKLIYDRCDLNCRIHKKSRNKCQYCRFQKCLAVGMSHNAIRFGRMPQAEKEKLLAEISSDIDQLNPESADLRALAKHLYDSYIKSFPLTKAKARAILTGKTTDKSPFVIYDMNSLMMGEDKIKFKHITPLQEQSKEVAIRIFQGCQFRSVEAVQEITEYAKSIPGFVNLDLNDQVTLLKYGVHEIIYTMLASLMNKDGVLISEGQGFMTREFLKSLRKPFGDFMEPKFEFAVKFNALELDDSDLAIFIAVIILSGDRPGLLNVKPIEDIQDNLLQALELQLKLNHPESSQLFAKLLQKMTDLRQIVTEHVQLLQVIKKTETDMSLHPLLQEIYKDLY
# Assay: Transcriptional activation assay in COS7 cells, PPARγ
# Type: cell-based
smiles,measurement,value
"CN(CCOc1ccc(CC2SC(=O)NC2=O)cc1)c1ccccn1 (stereo not shown) [rosiglitazone, reference compound]",Activation of transcription by PPARγ,induced activation of their respective receptors
